Laboratory results published in US20050282745A1, “Non-mammalian GnRH analogs and uses thereof in regulation of fertility and pregnancy” (priority 2001, published 2005).

Test system: chorionic peptidase-1 (C-ase-1)
Experiment: C-ase-1 enzyme activity assay, competition for degradation of GnRH

CC(C)C[C@H](NC(=O)CNC(=O)[C@H](Cc1ccc(O)cc1)NC(=O)[C@H](CO)NC(=O)[C@H](Cc1c[nH]c2ccccc12)NC(=O)[C@H](Cc1c[nH]cn1)NC(=O)[C@@H]1CCC(=O)N1)C(=O)N[C@@H](CCC(N)=O)C(=O)N1CCC[C@H]1C(=O)NCC(N)=O [chicken I GnRH]
relative potency of inhibition of C-ase-1 degradation of GnRH, compared to GnRH (Example V): 0.6
potency as competitor compared with salmon or chicken II GnRHs (Example VII): two-fold more potent
potency as competitor for GnRH degradation by C-ase-1 compared with GnRH (Example VII): three-fold less potent
